From article PMC6151989, “New Cinchona Oximes Evaluated as Reactivators of Acetylcholinesterase and Butyrylcholinesterase Inhibited by Organophosphorus Compounds” (2017)

Chains of the proteins cited; added tags and fusions are not shown. Lines headed by an entry give the natural chain unless they say otherwise; changes in a name come on top.
UniProt P06276: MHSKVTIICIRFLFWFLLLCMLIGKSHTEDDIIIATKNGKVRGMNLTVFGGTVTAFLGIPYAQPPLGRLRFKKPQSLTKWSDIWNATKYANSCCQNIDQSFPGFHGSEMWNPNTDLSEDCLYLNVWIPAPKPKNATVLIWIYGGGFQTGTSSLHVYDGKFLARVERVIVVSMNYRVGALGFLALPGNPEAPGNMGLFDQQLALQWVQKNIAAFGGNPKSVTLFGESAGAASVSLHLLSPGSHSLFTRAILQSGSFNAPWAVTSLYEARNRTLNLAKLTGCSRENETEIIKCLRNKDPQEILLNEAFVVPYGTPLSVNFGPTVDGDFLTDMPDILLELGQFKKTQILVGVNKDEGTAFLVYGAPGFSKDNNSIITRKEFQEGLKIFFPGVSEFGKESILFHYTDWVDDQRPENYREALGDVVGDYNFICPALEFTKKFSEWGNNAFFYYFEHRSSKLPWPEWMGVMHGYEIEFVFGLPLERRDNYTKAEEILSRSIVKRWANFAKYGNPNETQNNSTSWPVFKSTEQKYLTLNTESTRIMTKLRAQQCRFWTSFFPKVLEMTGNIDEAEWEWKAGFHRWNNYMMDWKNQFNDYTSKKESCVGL

Molecular target: OP-inhibited human butyrylcholinesterase (hBChE) (Homo sapiens, UniProt P06276)
Assay: Oxime-assisted reactivation of OP-inhibited hBChE (Ellman method)
Conditions: 0.1 mM oxime (0.05 mM C3), 25 °C

HI-6
Reactmax, maximal reactivation (Cyclosarin-inhibited hBChE): 70%
kobs, observed reactivation rate constant (Cyclosarin-inhibited hBChE): 0.0260 min⁻¹
t, time in which Reactmax was obtained (Cyclosarin-inhibited hBChE): 24 h
Reactmax, maximal reactivation (Sarin-inhibited hBChE): 98%
kobs, observed reactivation rate constant (Sarin-inhibited hBChE): 0.0113 min⁻¹
t, time in which Reactmax was obtained (Sarin-inhibited hBChE): 24 h
Reactmax, maximal reactivation (VX-inhibited hBChE): 85%
kobs, observed reactivation rate constant (VX-inhibited hBChE): 0.0356 min⁻¹
t, time in which Reactmax was obtained (VX-inhibited hBChE): 2.5 h
